The text below walks through data of ChEMBL document CHEMBL5625280, “Discovery of novel nucleoside derivatives as selective lysine acetyltransferase p300 inhibitors for cancer therapy” (Bioorg Med Chem Lett, 2024).

Protein sequences, listed by entry. Tags and fused reporters are not part of them.
UniProt Q09472, whole entry: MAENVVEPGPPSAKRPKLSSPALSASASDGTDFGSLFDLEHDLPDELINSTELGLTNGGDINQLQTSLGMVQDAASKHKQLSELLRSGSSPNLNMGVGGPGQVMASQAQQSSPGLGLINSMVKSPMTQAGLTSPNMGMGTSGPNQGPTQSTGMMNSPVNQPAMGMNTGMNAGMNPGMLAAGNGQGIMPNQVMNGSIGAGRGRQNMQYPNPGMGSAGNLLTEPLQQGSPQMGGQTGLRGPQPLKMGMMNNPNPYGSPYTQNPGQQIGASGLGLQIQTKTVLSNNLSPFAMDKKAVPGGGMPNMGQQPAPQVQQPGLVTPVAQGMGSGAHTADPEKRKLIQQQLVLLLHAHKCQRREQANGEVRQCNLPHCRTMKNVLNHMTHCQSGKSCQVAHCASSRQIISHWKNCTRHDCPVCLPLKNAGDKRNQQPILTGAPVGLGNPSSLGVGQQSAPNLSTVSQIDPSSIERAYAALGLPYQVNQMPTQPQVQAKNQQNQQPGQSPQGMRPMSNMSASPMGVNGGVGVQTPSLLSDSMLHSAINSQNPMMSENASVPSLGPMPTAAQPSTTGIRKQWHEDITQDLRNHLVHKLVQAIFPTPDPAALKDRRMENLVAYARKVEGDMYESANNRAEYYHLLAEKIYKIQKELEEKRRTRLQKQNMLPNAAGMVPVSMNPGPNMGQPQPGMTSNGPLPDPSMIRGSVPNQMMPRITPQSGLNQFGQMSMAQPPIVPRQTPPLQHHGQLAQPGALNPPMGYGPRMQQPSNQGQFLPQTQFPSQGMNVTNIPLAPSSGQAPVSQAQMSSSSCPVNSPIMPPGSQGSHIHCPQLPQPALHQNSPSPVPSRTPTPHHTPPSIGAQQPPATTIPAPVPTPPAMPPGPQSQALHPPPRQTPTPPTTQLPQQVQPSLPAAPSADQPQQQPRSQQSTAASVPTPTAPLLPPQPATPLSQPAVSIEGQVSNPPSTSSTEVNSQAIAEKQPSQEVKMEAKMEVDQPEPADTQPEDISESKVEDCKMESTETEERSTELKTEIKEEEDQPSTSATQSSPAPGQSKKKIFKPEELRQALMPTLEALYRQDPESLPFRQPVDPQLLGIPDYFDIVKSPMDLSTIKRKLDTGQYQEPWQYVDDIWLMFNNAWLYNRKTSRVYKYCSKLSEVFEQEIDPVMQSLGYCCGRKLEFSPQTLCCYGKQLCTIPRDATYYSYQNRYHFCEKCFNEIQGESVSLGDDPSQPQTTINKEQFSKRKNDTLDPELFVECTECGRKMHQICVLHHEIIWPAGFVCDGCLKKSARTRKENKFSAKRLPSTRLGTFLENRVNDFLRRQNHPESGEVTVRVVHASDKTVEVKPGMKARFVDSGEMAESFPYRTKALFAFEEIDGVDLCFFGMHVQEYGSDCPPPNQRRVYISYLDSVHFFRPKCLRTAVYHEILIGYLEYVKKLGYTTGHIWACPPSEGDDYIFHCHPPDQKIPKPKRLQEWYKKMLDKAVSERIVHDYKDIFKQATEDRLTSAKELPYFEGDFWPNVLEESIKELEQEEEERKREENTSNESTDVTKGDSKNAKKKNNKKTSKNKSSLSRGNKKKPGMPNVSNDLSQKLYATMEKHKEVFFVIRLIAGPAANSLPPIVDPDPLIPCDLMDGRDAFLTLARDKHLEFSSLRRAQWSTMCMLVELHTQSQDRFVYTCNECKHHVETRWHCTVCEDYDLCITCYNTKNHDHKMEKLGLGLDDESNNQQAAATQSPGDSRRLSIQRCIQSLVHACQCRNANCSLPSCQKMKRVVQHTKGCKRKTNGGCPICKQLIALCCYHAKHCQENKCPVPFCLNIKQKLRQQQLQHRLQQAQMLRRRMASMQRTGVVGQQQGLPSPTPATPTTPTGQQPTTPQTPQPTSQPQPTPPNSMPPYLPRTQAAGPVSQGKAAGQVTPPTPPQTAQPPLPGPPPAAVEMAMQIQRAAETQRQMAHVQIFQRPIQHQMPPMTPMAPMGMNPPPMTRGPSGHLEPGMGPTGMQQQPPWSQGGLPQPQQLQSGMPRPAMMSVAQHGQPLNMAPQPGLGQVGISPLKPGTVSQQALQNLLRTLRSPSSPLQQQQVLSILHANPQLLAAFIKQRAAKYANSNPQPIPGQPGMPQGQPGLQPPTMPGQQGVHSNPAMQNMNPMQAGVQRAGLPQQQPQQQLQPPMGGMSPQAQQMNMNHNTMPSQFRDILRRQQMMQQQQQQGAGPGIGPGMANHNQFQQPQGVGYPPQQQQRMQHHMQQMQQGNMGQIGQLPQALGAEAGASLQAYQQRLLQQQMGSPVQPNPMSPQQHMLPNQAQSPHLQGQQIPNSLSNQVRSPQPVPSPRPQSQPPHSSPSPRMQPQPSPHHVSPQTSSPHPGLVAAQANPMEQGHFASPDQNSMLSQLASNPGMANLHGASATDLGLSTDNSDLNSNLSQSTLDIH

What is called IC50 is the concentration that inhibits the measured activity by half. A higher IC50 goes with weaker potency in that assay.

Molecules are shown by their SMILES.

For this test, the target named is Histone acetyltransferase p300 (Homo sapiens, UniProt Q09472).

Compound `CO[C@H]1CC[C@H](n2c([C@@H]3CCCC(=O)N3c3ccc(F)c(F)c3)nc3cc(-c4c(C)noc4C)ccc32)CC1` [INOBRODIB] had an IC50 of 64 nM.
